From patent publication US20210330611A1, “THERAPY FOR NEUROLOGICAL DISEASES/DISORDERS” (priority 2020, published 2021)

Assays:
[1] = tested on: fibrin- and LPS-induced microglia activation
primary rat microglia [2] = test: Cell toxicity (dead cells, size <150 μm2) in LPS assay
primary rat microglia [3] = test: Cell toxicity (dead cells, size <150 μm2) in coated fibrin (cFib) assay;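 also: share of dead cells sized under 150 µm2 at 10 µM in fibrin-stimulated microglia HTS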
[4] = tested on: LPS-induced microglia activation; test: Image-based assay of LPS-induced microglia activation (HTS and dose response); assay type: cell-based, rat
[5] = tested on: fibrin-induced microglia activation; test: Image-based assay of fibrin-induced microglia activation (HTS and dose response); assay type: cell-based, rat

Molecule: NC(=O)Nc1ccc([As](=O)(O)O)cc1
- Quadrant (FIG. 5b) ([1]; primary HTS, 10 μM): Q4
- LPS % cell toxicity (primary rat microglia [2]; primary HTS, 10 μM, LPS assay, dead cells size <150 μm2): 0%
- Fibrin % cell toxicity (primary rat microglia [3]; primary HTS, 10 μM, fibrin assay, dead cells size <150 μm2): 1%
- LPS % inhibition ([4]; primary HTS, 10 μM, LPS-stimulated primary microglia): 17%
- Fibrin % inhibition ([5]; primary HTS, 10 μM, fibrin-stimulated primary microglia): −4%

Molecule: O=C(OC1CN2CCC1CC2)c1ccccc1 (stereo not shown)
- Quadrant (FIG. 5b) ([1]; quadrant by fibrin and LPS inhibition, HTS at 10 μM): Q4
- LPS % cell toxicity (primary rat microglia [2]; primary microglia HTS, LPS assay, dead cells (size <150 μm2)): 0%
- Fibrin % cell toxicity (primary rat microglia [3]; primary microglia HTS, fibrin assay, dead cells (size <150 μm2)): 1%
- LPS % inhibition ([4]; primary microglia HTS, LPS stimulation, compounds at 10 μM): 5%
- Fibrin % inhibition ([5]; primary microglia HTS, fibrin stimulation, compounds at 10 μM): −55%

Molecule: Sodium Monofluorophosphate
- Quadrant (FIG. 5b) ([1]; classification by fibrin and LPS inhibition in HTS): Q4
- LPS % cell toxicity (primary rat microglia [2]; primary microglia HTS, LPS stimulation, cell size <150 μm2 as marker of toxicity): 0%
- Fibrin % cell toxicity (primary rat microglia [3]; primary microglia HTS, fibrin stimulation, cell size <150 μm2 as marker of toxicity): 0%

Like-named read-outs stand apart in the source and are kept apart here.
